# Measured values as given in patent publication US10967068B2, “Stability-modulating linkers for use with antibody drug conjugates” (priority 2014, dated 2021).
# “And” between values parts separate entries of the source, which are not always exact repeats. Identical values can stand only once. Like-named read-outs stand apart in the source and are kept apart here.
# Assays:
# [1] = In Vitro Stability Assay—Mouse Plasma; assay type: in vitro ADME; details: for Conjugate Stability In Vitro in Mouse Plasma (% DAR remaining), LCQ04: tag LCQ04; for Conjugate Stability In Vitro in Mouse Plasma (% DAR remaining), H7C: tag H7C; for Conjugate Stability In Vitro in Mouse Plasma (% DAR remaining), H8A: tag H8A; for Conjugate Stability In Vitro in Mouse Plasma (% DAR remaining), H10: tag H10; for Conjugate Stability In Vitro in Mouse Plasma (% DAR remaining), H16: tag H16
# [2] = 9 mg/kg; for Conjugate Stability In Vivo in Mouse (% DAR remaining), LCQ04: tag LCQ04 on Trop2 antibody; for Conjugate Stability In Vivo in Mouse (% DAR remaining), TG6: tag TG6 on Trop2 antibody
# [3] = 4.5 d; for Conjugate stability In Vitro in Cyno Plasma (% DAR remaining), H7C: tag H7C; for Conjugate stability In Vitro in Cyno Plasma (% DAR remaining), H8A: tag H8A; for Conjugate stability In Vitro in Cyno Plasma (% DAR remaining), H10: tag H10; for Conjugate stability In Vitro in Cyno Plasma (% DAR remaining), H16: tag H16; for Conjugate stability In Vitro in Cyno Plasma (% DAR remaining), L11B/C: tag L11B/C; for Conjugate stability In Vitro in Cyno Plasma (% DAR remaining), LCQ04: tag LCQ04; for Conjugate stability In Vitro in Cyno Plasma (% DAR remaining), TG6: tag TG6
# [4] = 9 mg/kg
# [5] = 4.5 d; for Conjugate Stability In Vitro in Rat Plasma (% DAR remaining), H7C: tag H7C; for Conjugate Stability In Vitro in Rat Plasma (% DAR remaining), H8A: tag H8A; for Conjugate Stability In Vitro in Rat Plasma (% DAR remaining), H10: tag H10; for Conjugate Stability In Vitro in Rat Plasma (% DAR remaining), H16: tag H16; for Conjugate Stability In Vitro in Rat Plasma (% DAR remaining), L11B/C: tag L11B/C; for Conjugate Stability In Vitro in Rat Plasma (% DAR remaining), LCQ04: tag LCQ04; for Conjugate Stability In Vitro in Rat Plasma (% DAR remaining), TG6: tag TG6
# [6] = attachment position TG6, % DAR remaining after incubation in plasma for 3 or 4.5 days
# [7] = attachment position TG6, plasma species not printed in table (values match mouse plasma, Table 4)
# [8] = attachment position H7C, % DAR remaining after plasma 3 or 4.5 days
# [9] = attachment position H8A, % DAR remaining after plasma 3 or 4.5 days
# [10] = attachment position H10, % DAR remaining after plasma 3 or 4.5 days
# [11] = attachment position L11B, % DAR remaining after plasma 3 or 4.5 days
# [12] = attachment position LCQ04, % DAR remaining after plasma 3 or 4.5 days
compound,measurement,setting,value
"CC[C@H](C)[C@@H]([C@@H](CC(=O)N1CCC[C@H]1[C@H](OC)[C@@H](C)C(=O)N[C@@H](Cc1ccccc1)c1nccs1)OC)N(C)C(=O)[C@@H](NC(=O)C(C)(C)NC(=O)OCc1ccc(NC(=O)[C@H](CCCNC(N)=O)NC(=O)[C@@H](NC(=O)[C@H](CCCCN)NC(=O)CO)C(C)C)cc1)C(C)C [Example 25, N˜2˜-(hydroxyacetyl)-L-lysylvalyl-N-{4-[(8S,11S,12R)-11-[(2S)-butan-2-yl]-12-(2-{(2S)-2-[(1R,2R)-1-methoxy-2-methyl-3-oxo-3-{[(1S)-2-phenyl-1-(1,3-thiazol-2-yl)ethyl]amino}propyl]pyrrolidin-1-yl}-2-oxoethyl)-5,5,10-trimethyl-3,6,9-trioxo-8-(propan-2-yl)-2,13-dioxa-4,7,10-triazatetradec-1-yl]phenyl}-N˜5˜-carbamoyl-L-ornithinamide]",DAR after plasma incubation for 3 to 4.5 days,[1]; attachment position L11B,1.61
AcLys-vcMMAD [Example 9],Conjugate stability (%),[1]; [6],92%
same,DAR after plasma incubation for 3 to 4.5 days,[1]; [7],1.80
same,"Conjugate Stability In Vitro in Mouse Plasma (% DAR remaining), LCQ04","[1]; 3 d, value marked *",90%
same,"Conjugate Stability In Vitro in Mouse Plasma (% DAR remaining), LCQ04","[1]; 3 d, value marked **",97%
same,"Conjugate Stability In Vitro in Mouse Plasma (% DAR remaining), TG6","[1]; tag TG6 on Trop2 antibody, 3 d",88%
same,"Conjugate Stability In Vivo in Mouse (% DAR remaining), LCQ04","[2]; 4 d, value marked **",89** %
same,"Conjugate Stability In Vivo in Mouse (% DAR remaining), TG6",[2]; 4 d,83%
AcLys-vc0101 [Example 11],"Conjugate stability In Vitro in Cyno Plasma (% DAR remaining), H7C",[3],99%
same,"Conjugate stability In Vitro in Cyno Plasma (% DAR remaining), H8A",[3],100%
same,"Conjugate stability In Vitro in Cyno Plasma (% DAR remaining), H10",[3],99%
same,"Conjugate stability In Vitro in Cyno Plasma (% DAR remaining), H16",[3],100%
same,"Conjugate stability In Vitro in Cyno Plasma (% DAR remaining), L11B/C",[3],97%
same,"Conjugate stability In Vitro in Cyno Plasma (% DAR remaining), LCQ04",[3],100%
same,"Conjugate stability In Vitro in Cyno Plasma (% DAR remaining), TG6",[3],99%
same,"Conjugate Stability In Vivo in Rat (% DAR remaining), N297A","[4]; rat, in vivo",~100%
same,"Conjugate Stability In Vivo in Rat (% DAR remaining), H8A","[4]; tag H8A on Trop2 antibody, 14 d",94%
same,"Conjugate Stability In Vivo in Rat (% DAR remaining), H10","[4]; tag H10 on Trop2 antibody, 14 d",98%
same,"Conjugate Stability In Vivo in Rat (% DAR remaining), L11B/C","[4]; tag L11B/C on Trop2 antibody, 14 d",88%
same,"Conjugate Stability In Vivo in Rat (% DAR remaining), LCQ04","[4]; tag LCQ04 on Trop2 antibody, 14 d",94%
same,"Conjugate Stability In Vitro in Mouse Plasma (% DAR remaining), N297A",[1],100%
same,DAR after plasma incubation for 3 to 4.5 days,[1]; attachment position H7C,1.61
same,Conjugate stability (%),[1]; [8],85%
same,DAR after plasma incubation for 3 to 4.5 days,[1]; attachment position H8A,1.34
same,Conjugate stability (%),[1]; [9],73%
same,DAR after plasma incubation for 3 to 4.5 days,[1]; attachment position H10,1.50
same,Conjugate stability (%),[1]; [10],92%
same,DAR after plasma incubation for 3 to 4.5 days,[1]; attachment position L11B,1.22
same,Conjugate stability (%),[1]; [11],65%
same,DAR after plasma incubation for 3 to 4.5 days,[1]; attachment position LCQ04,1.85
same,Conjugate stability (%),[1]; [12],99%
same,"Conjugate Stability In Vitro in Mouse Plasma (% DAR remaining), H7C",[1]; 4.5 d,85%
same,"Conjugate Stability In Vitro in Mouse Plasma (% DAR remaining), H8A",[1]; 4.5 d,73%
same,"Conjugate Stability In Vitro in Mouse Plasma (% DAR remaining), H10",[1]; 4.5 d,92%
same,"Conjugate Stability In Vitro in Mouse Plasma (% DAR remaining), H16",[1]; 4.5 d,100%
same,"Conjugate Stability In Vitro in Mouse Plasma (% DAR remaining), L11B/C","[1]; tag L11B/C, 4.5 d",65%
same,"Conjugate Stability In Vitro in Mouse Plasma (% DAR remaining), LCQ04",[1]; 4.5 d,99%
same,"Conjugate Stability In Vitro in Mouse Plasma (% DAR remaining), TG6","[1]; tag TG6, 4.5 d",92% and 94%
same,"Conjugate Stability In Vitro in Mouse Plasma (% DAR remaining), TG6","[1]; tag TG6 on Trop2 antibody, 3 d",93% and 94%
same,"Conjugate Stability In Vivo in Mouse (% DAR remaining), LCQ04",[2]; 3 d,95%
same,"Conjugate Stability In Vivo in Mouse (% DAR remaining), LCQ04",[2]; 10 d,80%
same,"Conjugate Stability In Vitro in Rat Plasma (% DAR remaining), H7C",[5],98%
same,"Conjugate Stability In Vitro in Rat Plasma (% DAR remaining), H8A",[5],100%
same,"Conjugate Stability In Vitro in Rat Plasma (% DAR remaining), H10",[5],98%
same,"Conjugate Stability In Vitro in Rat Plasma (% DAR remaining), H16",[5],100%
same,"Conjugate Stability In Vitro in Rat Plasma (% DAR remaining), L11B/C",[5],96%
same,"Conjugate Stability In Vitro in Rat Plasma (% DAR remaining), LCQ04",[5],99%
same,"Conjugate Stability In Vitro in Rat Plasma (% DAR remaining), TG6",[5],99%
C6vcMMAD [Example 8],"Conjugate Stability In Vitro in Mouse Plasma (% DAR remaining), H12C",[1],96%
same,"Conjugate Stability In Vitro in Mouse Plasma (% DAR remaining), H13A",[1],0%
same,"Conjugate Stability In Vitro in Mouse Plasma (% DAR remaining), L11B/C",[1],5%
same,"Conjugate Stability In Vitro in Mouse Plasma (% DAR remaining), N297A",[1],77%
same,"Conjugate Stability In Vitro in Mouse Plasma (% DAR remaining), N297Q",[1],96%
same,"Conjugate Stability In Vitro in Mouse Plasma (% DAR remaining), H7C",[1]; 3 d,26%
same,"Conjugate Stability In Vitro in Mouse Plasma (% DAR remaining), H8A",[1]; 3 d,18%
same,"Conjugate Stability In Vitro in Mouse Plasma (% DAR remaining), H10",[1]; 3 d,37%
same,"Conjugate Stability In Vitro in Mouse Plasma (% DAR remaining), H16",[1]; 3 d,99%
same,"Conjugate Stability In Vitro in Mouse Plasma (% DAR remaining), L11B/C","[1]; tag L11B (first value of 9/5), 3 d",9%
same,"Conjugate Stability In Vitro in Mouse Plasma (% DAR remaining), LCQ04","[1]; 3 d, value marked *",66%
same,"Conjugate Stability In Vitro in Mouse Plasma (% DAR remaining), LCQ04","[1]; 3 d, value marked **",75%
same,"Conjugate Stability In Vitro in Mouse Plasma (% DAR remaining), TG6","[1]; tag TG6 on Trop2 antibody, 3 d",51%
same,"Conjugate Stability In Vivo in Mouse (% DAR remaining), H7C","[2]; tag H7C on Trop2 antibody, 3 d",1%
same,"Conjugate Stability In Vivo in Mouse (% DAR remaining), TG6",[2]; 3 d,0%
C6vc0101 [Example 10],"Conjugate stability In Vitro in Cyno Plasma (% DAR remaining), H7C",[3],98%
same,"Conjugate stability In Vitro in Cyno Plasma (% DAR remaining), H8A",[3],101%
same,"Conjugate stability In Vitro in Cyno Plasma (% DAR remaining), H10",[3],97%
same,"Conjugate stability In Vitro in Cyno Plasma (% DAR remaining), H16",[3],100%
same,"Conjugate stability In Vitro in Cyno Plasma (% DAR remaining), L11B/C",[3],99%
same,"Conjugate stability In Vitro in Cyno Plasma (% DAR remaining), LCQ04",[3],100%
same,"Conjugate stability In Vitro in Cyno Plasma (% DAR remaining), TG6",[3],99%
same,"Conjugate Stability In Vitro in Mouse Plasma (% DAR remaining), N297A",[1],89%
same,"Conjugate Stability In Vitro in Mouse Plasma (% DAR remaining), N297Q",[1],100%
same,Conjugate stability (%),[1],87% and 100%
same,DAR after plasma incubation for 3 to 4.5 days,[1]; attachment position H7C,0.34
same,Conjugate stability (%),[1]; [8],22%
same,DAR after plasma incubation for 3 to 4.5 days,[1]; attachment position H8A,0.11
same,Conjugate stability (%),[1]; [9],6%
same,DAR after plasma incubation for 3 to 4.5 days,[1]; attachment position H10,0.71
same,Conjugate stability (%),[1]; [10],42%
same,DAR after plasma incubation for 3 to 4.5 days,[1]; attachment position H16,2.00
same,Conjugate stability (%),"[1]; attachment position H16, % DAR remaining after plasma 3 or 4.5 days",100%
same,DAR after plasma incubation for 3 to 4.5 days,[1]; attachment position L11B,0.09
same,Conjugate stability (%),[1]; [11],5%
same,DAR after plasma incubation for 3 to 4.5 days,[1]; attachment position LCQ04,1.63
same,Conjugate stability (%),[1]; [12],86%
same,Conjugate stability (%),[1]; [6],34%
same,DAR after plasma incubation for 3 to 4.5 days,[1]; [7],0.67
same,"Conjugate Stability In Vitro in Mouse Plasma (% DAR remaining), H7C",[1]; 4.5 d,22%
same,"Conjugate Stability In Vitro in Mouse Plasma (% DAR remaining), H8A",[1]; 4.5 d,6%
same,"Conjugate Stability In Vitro in Mouse Plasma (% DAR remaining), H10",[1]; 4.5 d,"42, 42%"
same,"Conjugate Stability In Vitro in Mouse Plasma (% DAR remaining), H16",[1]; 4.5 d,100%
same,"Conjugate Stability In Vitro in Mouse Plasma (% DAR remaining), L11B/C","[1]; tag L11B/C, 4.5 d",4% and 5%
same,"Conjugate Stability In Vitro in Mouse Plasma (% DAR remaining), LCQ04",[1]; 4.5 d,88% and 86%
same,"Conjugate Stability In Vitro in Mouse Plasma (% DAR remaining), TG6","[1]; tag TG6, 4.5 d",44% and 34%
same,"Conjugate Stability In Vitro in Mouse Plasma (% DAR remaining), TG6","[1]; tag TG6 on Trop2 antibody, 3 d",64% and 54%
same,"Conjugate Stability In Vivo in Mouse (% DAR remaining), LCQ04",[2]; 3 d,72%
same,"Conjugate Stability In Vivo in Mouse (% DAR remaining), LCQ04",[2]; 10 d,24%
same,"Conjugate Stability In Vitro in Rat Plasma (% DAR remaining), H7C",[5],97%
same,"Conjugate Stability In Vitro in Rat Plasma (% DAR remaining), H8A",[5],99%
same,"Conjugate Stability In Vitro in Rat Plasma (% DAR remaining), H10",[5],97%
same,"Conjugate Stability In Vitro in Rat Plasma (% DAR remaining), H16",[5],100%
same,"Conjugate Stability In Vitro in Rat Plasma (% DAR remaining), L11B/C",[5],94%
same,"Conjugate Stability In Vitro in Rat Plasma (% DAR remaining), LCQ04",[5],99%
same,"Conjugate Stability In Vitro in Rat Plasma (% DAR remaining), TG6",[5],97%
